ALR inh = inhibitors of human ALR sulfhydryl oxidase, primary screen, biochemical, H2O2 detection, HRP-luminol luminescence, single point. 290,000 compounds, 3.8% hits. inhibition, % (concentration not given with the values). purified ALR, DTT oxidation. AID 485317, 2010;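 active means mean and each replicate at 75% or more; inconclusive means only one of the two met; inactive means neither met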;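 further: stock transfer was 7.5 nL into about 7.5 µL; 0% = neutral wells and 100% = wells with inactivated enzyme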
MC4R barr agon = agonists of human melanocortin 4 receptor (MC4R) beta-arrestin. actives 0.98% (n = 360,000). P32245. activation, % at 8.9 µM. U2OS MC4R beta-arrestin complementation, luminescence; percent of melanotan II response, DMSO zero;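 active = activation above a per-plate cutoff, the mean activation of sample wells on that plate plus 3 SD, cut at about 8% in these data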
NALP1 inh = inhibitors of NALP1 inflammasome in yeast. AID 2071. S. cerevisiae NALP1/ASC/caspase-1 growth, X-gal OD620, 72 h. actives 0.61% (n = 280,000). inhibition, % at 10 µM; in the data active = inhibition mostly above about 24%, no sharp cut-off; inactive = mostly below about 32%
MC4R antagonist = blocks human MC4R cAMP signaling. P32245. MC4R-expressing cells, MTII-stimulated cAMP, LANCE TR-FRET. inhibition, % at 6.5 µM. actives 0.48% (n = 360,000);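 active = inhibition above its plate's cutoff, the mean of tested wells on that plate plus 3 SD, cut at about 29% in these data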;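 note: 0% = Melanotan II alone and 100% = Melanotan II plus saturating MCL0020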
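Assay system: U2OS-MC4R stable cell line; Also added: Melanotan II; Technique: Eu-cAMP/anti-cAMP TR-FRET, emission 671 nm; Times: 30-min compound, 1-h challenge, 1-h detection, room temperature.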
HDAC3 inh = human HDAC3 inhibition | O15379 | recombinant HDAC3, fluorogenic peptide/trypsin coupled, fluorescence | inhibition, % at 8.3 µM | actives 0.15% (n = 320,000); in the data active = inhibition above about 26%, passing the limit was not always enough
Yeast UUG start-1 = modulators of start codon recognition fidelity in yeast. S. cerevisiae UUG-firefly luciferase reporter, luminescence/redox ratio. activity score, % at 18.7 µM. 0.13% of 350,000 active. AID 602363;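 active = replicate mean at a twofold rise or more, about +100% in these data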;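 also: firefly luciferase made from a UUG start codon reports start codon fidelity; reporter light over untreated wells divided by growth signal over untreated wells; some hits fall short of that in this replicate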
Yeast UUG start-2 = yeast start codon fidelity modulation; shares compounds with Yeast UUG start-1; S. cerevisiae UUG-start firefly luciferase, luminescence, 4 h; 100% means double the DMSO signal; activation, % at 38 µM; 540 tested, under 10 active; AID 652061;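 active = signal increase whose fitted curve reaches an absolute level of 40 at a concentration under 10 µM; inactive = activity opposite to the expected increase, or the rest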
* marks the source's active call; other numbers are inactive results; i = inactive; . = no result. Shown are actives, neighbours in structure and some others; about 4.2% of the full set was active somewhere.

SMILES | ALR inh | MC4R barr agon | NALP1 inh | MC4R antagonist | HDAC3 inh | Yeast UUG start-1 | Yeast UUG start-2
CC(C)C#Cc1ccc2c(c1)O[C@H](CN(C)Cc1cncnc1)[C@H](C)CN([C@H](C)CO)S2(=O)=O | . | . | . | . | . | -9 | .
CO[C@@H]1CN(C)C(=O)c2cc(NS(C)(=O)=O)ccc2OC[C@@H](C)N(CC2CCCCC2)C[C@H]1C | . | . | . | . | . | 3 | .
COc1ccc(C(=O)N2CCCc3ccccc32)cc1OC | -11 | 0 | -51 | 10 | 3 | active | -7
COc1ccc(Cl)cc1NC(=O)CSc1nc2[nH]ncc2c(=O)[nH]1 | . | 0 | . | 4 | . | 109* | 4
O=C(NCc1ccccn1)c1c(-c2ccccc2)sc2ccccc12 | 4 | -1 | . | -4 | -2 | 62* | 4
C#CCOCCOCCOCCNc1nc(N2CCN(C(=O)[C@H](CCC(=O)O)n3cc(C(N)Cc4ccc(O)cc4)nn3)CC2)nc(N2CCN(C(=O)[C@H](CCC(=O)O)n3cc(C(N)[C@H](C)CC)nn3)CC2)n1 (stereo partly drawn) | 3 | 1 | 0 | -4 | -5 | 112* | 10
C#CCOCCOCCOCCNc1nc(N2CCN(C(=O)[C@H](CCCN=C(N)N)n3cc(C(N)[C@H](C)CC)nn3)CC2)nc(N2CCN(C(=O)[C@H](CC(N)=O)n3cc(C(N)[C@@H](C)CC)nn3)CC2)n1 (stereo partly drawn) | . | 2 | . | 2 | -3 | 121* | -3
COc1ccc2oc(C(=O)OCC(=O)c3ccc4c(c3)OCCO4)c(C)c2c1 | 12 | 1 | 13 | -2 | -5 | 668* | 16
COc1ccccc1-c1cn(CC[C@H]2CC[C@H](NC(=O)CCN3CCCCC3)[C@H](CO)O2)nn1 | . | . | . | . | . | 12 | .
C/C(=N/NC(=O)CNC(=O)c1ccncc1)c1ccco1 | 9 | -1 | 25 | 4 | 5 | 180* | 8
COCCNC(=O)C[C@@H]1C[C@H]2c3cc(NC(=O)CC4CC4)ccc3O[C@H]2[C@H](CO)O1 | . | . | . | . | . | -15 | .
O=C(C[C@H]1CC[C@@H]2[C@H](COC[C@@H](O)CN2S(=O)(=O)c2ccc(Cl)cc2)O1)N[C@H]1CCN(Cc2ccccc2)C1 | . | . | . | . | . | 25 | .
Cc1nc(N2CCN(S(=O)(=O)c3ccccc3C#N)CC2)c2c(-c3ccccc3)csc2n1 | -2 | -3 | . | 14 | 7 | 141* | -2
N#Cc1ccccc1S(=O)(=O)N1CCN(c2nc(-c3ccccc3)nc3ccccc23)CC1 | . | -3 | . | 0 | . | 10 | .
CN(C)C1=NC[C@H](Cc2ccccc2)N1CCCC1CCCC1 | -2 | 0 | . | 4 | 2 | 151* | 1
CN(C)C1=NC[C@H](Cc2ccccc2)N1CCCC1CCCCC1 | -39 | 1 | . | 9 | 1 | -16 | .

Ordered by the number under HDAC3 inh (low to high): four of the compounds above.
SMILES | ALR inh | MC4R barr agon | NALP1 inh | MC4R antagonist | HDAC3 inh | Yeast UUG start-1 | Yeast UUG start-2
CN(C)C1=NC[C@H](Cc2ccccc2)N1CCCC1CCCCC1 | -39 | 1 | . | 9 | 1 | -16 | .
CN(C)C1=NC[C@H](Cc2ccccc2)N1CCCC1CCCC1 | -2 | 0 | . | 4 | 2 | 151* | 1
C/C(=N/NC(=O)CNC(=O)c1ccncc1)c1ccco1 | 9 | -1 | 25 | 4 | 5 | 180* | 8
Cc1nc(N2CCN(S(=O)(=O)c3ccccc3C#N)CC2)c2c(-c3ccccc3)csc2n1 | -2 | -3 | . | 14 | 7 | 141* | -2

(continued)
SMILES | ALR inh | MC4R barr agon | NALP1 inh | MC4R antagonist | HDAC3 inh | Yeast UUG start-1 | Yeast UUG start-2
CO[C@@H]1CN(C)C(=O)c2ccc(NC(C)=O)cc2OC[C@H](C)N(C(=O)C2CCCCC2)C[C@@H]1C | . | . | . | . | . | -1 | .
CC(C)N(CC#CC(O)(c1ccccc1)c1ccccc1)C(C)C | 0 | -2 | 13 | 6 | 9 | . | -6
CC(C)N(CC#CC(O)(c1ccccc1)c1ccccc1)CCO | -7 | -2 | 26 | 10 | -3 | -13 | .
CCN(CC)S(=O)(=O)c1ccc(C(=O)Nc2cc(C)cc(C)c2)cc1 | 0 | 0 | -6 | 3 | 6 | 322* | 3
COc1ccccc1C1(CCN=Cc2ccc(N(C)C)cc2)CCOC(C)(C)C1 (stereo not drawn) | 0 | -3 | -8 | 6 | -5 | 15 | .
CN(C)c1ccc(C=NCCC2(O)CCOC(C)(C)C2)cc1 (stereo not drawn) | -12 | -1 | 1 | 0 | 2 | 118* | -2
Cc1onc(-c2ccccc2)c1-c1ccnn1S(=O)(=O)c1ccc(Cl)cc1 | -10 | 0 | 21 | 0 | -1 | . | .
Cc1onc(-c2ccc(Cl)cc2)c1-c1ccnn1S(=O)(=O)c1cccc(C(F)(F)F)c1 | . | -1 | -1 | 9 | 4 | 187* | 19
CC(C)c1cn(CC[C@H]2CC[C@H](N)[C@@H](CO)O2)nn1 | . | . | . | . | . | 134* | i
O=C(CNC(=O)c1cc(=O)[nH]c2ccc(S(=O)(=O)N3CCOCC3)cc12)Nc1ccc(F)c(F)c1 | . | -1 | . | 5 | . | 108* | 12
COc1cc2c(C#N)c(N3CCc4ccccc4C3)nc(N)c2c(N)n1 | . | 2 | 4 | -41 | 3 | 502* | -4
CCCC#Cc1cnc2c(c1)C(=O)N([C@H](C)CO)C[C@H](C)[C@H](CN(C)C(=O)Nc1c(C)noc1C)O2 | . | . | . | . | . | 8 | .
C[C@H](CO)N1C[C@H](C)[C@@H](CN(C)Cc2cccnc2)Oc2ncc(C#CC3CCCCC3)cc2C1=O | . | . | . | . | . | 141* | i
C[C@H]1CN([C@@H](C)CO)C(=O)c2cc(C#CC3CCCCC3)cnc2O[C@@H]1CN(C)Cc1cccnc1 | . | . | . | . | . | 0 | .
C[C@H](CO)N1C[C@H](C)[C@@H](CN(C)C(=O)Nc2ccccc2)Oc2ncc(C#CC3CCCC3)cc2C1=O | . | . | . | . | . | 30 | .
C[C@@H]1CN([C@@H](C)CO)C(=O)c2cc(C#CC3CCCC3)cnc2O[C@H]1CN(C)C(=O)Nc1ccccc1 | . | . | . | . | . | 157* | i
Cc1ccc(S(=O)(=O)N(C)C[C@H]2Oc3ncc(Br)cc3C(=O)N([C@@H](C)CO)C[C@H]2C)cc1 | . | . | . | . | . | 108* | i
Cc1ccc(S(=O)(=O)N(C)C[C@@H]2Oc3ncc(-c4ccncc4)cc3C(=O)N([C@@H](C)CO)C[C@H]2C)cc1 | . | . | . | . | . | 200* | i
Cc1ccc(S(=O)(=O)N(C)C[C@H]2Oc3ncc(Br)cc3C(=O)N([C@@H](C)CO)C[C@@H]2C)cc1 | . | . | . | . | . | 3 | .
Cc1[nH]c2ccccc2c1/C=N/NC(=O)c1cc(-c2ccccc2)n[nH]1 | . | 1 | . | -9 | 10 | 169* | 1
Cc1[nH]c2ccccc2c1/C=N/NC(=O)c1ccccc1 | 24 | -2 | 2 | 1 | 4 | . | .
O=C(Cc1ccccc1)N1C[C@H]2[C@@H](c3ccccc31)[C@@H](CO)N2C(=O)c1ccc(F)cc1 | . | . | . | . | . | 109* | i
O=C(c1ccccc1F)N1C[C@@H]2[C@H](c3ccccc31)[C@@H](CO)N2C(=O)C1CCCC1 | . | . | . | . | . | active | i
O=C(c1cccnc1)N1C[C@@H]2[C@H](c3ccccc31)[C@H](CO)N2C(=O)C1CCCC1 | . | . | . | . | . | 103* | i
O=C(c1ccccc1F)N1C[C@H]2[C@@H](c3ccccc31)[C@H](CO)N2C(=O)C1CCCC1 | . | . | . | . | . | 3 | .
C[C@H](CO)N1C[C@H](C)[C@@H](CN(C)C)Oc2c(NC(=O)c3cnccn3)cccc2C1=O | . | . | . | . | . | -4 | .
